In the library only some 1.3% were active in any assay of this set; here they are far more common.
EWS-Fli inh – EWS/Fli-driven NR0B1 reporter inhibitors, primary screen, A673 cells, NR0B1 luciferase, luminescence, MLPCN library; viability-normalised; inhibition, % at 12.6 µM; actives 0.67% (n = 350,000); AID 651661, 2012;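 active means mean inhibition of at least 50% after viability correction, with every replicate also passing that limit; inconclusive means mean reaches 50% but only one of two replicates passes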;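 further: firefly luciferase signal divided by Alamar Blue viability fluorescence both relative to DMSO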
UUG fidelity – modulators of start codon recognition fidelity in yeast | S. cerevisiae UUG-firefly luciferase reporter, luminescence/redox ratio | activity score, % at 18.7 µM | 350,000 tested, 0.13% active;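 active = replicate mean at a twofold rise or more, about +100% in these data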;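 also: firefly luciferase made from a UUG start codon reports start codon fidelity; reporter light over untreated wells divided by growth signal over untreated wells; some hits fall short of that in this replicate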
PglD inh – C. jejuni PglD acetyltransferase inhibitors, primary screen, biochemical, DTNB colorimetric, single point | actives 0.098% (n = 360,000) | purified PglD enzyme, DTNB colorimetric CoA detection | inhibition, % at 12.5 µM | AID 602405, 2012 | UDP-N-acetylbacillosamine N-acetyltransferase PglD (Campylobacter jejuni); in the data active means inhibition above about 16%, passing the limit was not always enough; inconclusive means no clear call, values can overlap the other calls
LGR2 antag – inhibitors of bursicon-induced LGR2 CRE-luciferase signal, primary screen, cell-based, HEK293, CRE-luciferase reporter, bursicon stimulation; inhibition, % at 9.99 µM; AID 720647, 2013; actives 0.35% (n = 380,000); bursicon-stimulated, 4 h;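 active means drop in luminescence signal, shown as inhibition above about 50% in the replicate tests, limit read from the data, passing the limit was not always enough; inconclusive means probably only some replicates passing the limit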;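 further: agonist challenge used bursicon conditioned medium at about half maximal strength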
miR-122 sensor – miR-122 Renilla sensor signal increase in Huh7, primary screen, miR-122 inhibitor project, cell-based, single point, plate reader | Huh7 miR-122 Renilla luciferase sensor, 48 h; neutral wells = 0, positive control = 100 | activation (reporter increase), % at 12.5 µM | actives 0.3% (n = 340,000) | AID 602342, 2012;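 active means mean replicate activation score at least 90 and every replicate individually at or above 90; inconclusive means only one of the two criteria met; inactive means neither criterion met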;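 further: higher luciferase means less miR-122 activity so hits act as miR-122 inhibitors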
F508del corr – F508del CFTR correction, initial screen, CFBE line, single point; CFBE cells, YFP halide quenching; stimulated with forskolin plus potentiator P3; % fluorescence drop versus neutral controls; activity (quench increase), % at 7.58 µM; actives 0.36% (n = 350,000);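 active means mean added fluorescence quench of at least 8% versus neutral control, with both replicates also reaching 8%; inconclusive means only one of the mean or replicate conditions met; inactive means mean below 8% and not both replicates reaching 8%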;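 further: cells transiently co-express mutant CFTR-F508del with the halide-sensitive YFP; corrector assay measuring rescue of mutant channel to the surface after 24 h compound exposure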
Active calls of the source: *; ? = inconclusive; nt = no result given; ! = not confirmed by another sample; [ ] = dose if it differs, or a comment.

[1] COc1cccc(C2NC(=S)NC(C)=C2C(=O)c2ccccc2)c1OC (configuration not stated)
[2] Cc1cc2c(cc1S(=O)(=O)N1CC(C)CC(C)C1)OCC(=O)N2 (configuration not stated)
[3] Cc1ccc(-c2nc(CSCC(=O)NCCN3CCN(Cc4ccccc4)CC3)c(C)o2)cc1
[4] CCc1ccc(-c2nc(CSCC(=O)NCc3ccco3)c(C)o2)cc1
[5] CCCNC(=O)CSCc1nc(-c2ccc(SC)cc2)oc1C
assay / compound | 1 | 2 | 3 | 4 | 5
PglD inh | nt | 2.7 | -5.8 | nt | nt
F508del corr | 2.4 | 5.4 | nt | -0.1 | 4.9
UUG fidelity | nt | -13.9 | -6.8 | nt | nt
miR-122 sensor | 147.1* | -4.4 | 169.8* | nt | nt
EWS-Fli inh | ? | 0.1 | nt | 83.6* | 17.7
LGR2 antag | 34.8 | -0.9 | nt | 0.8 | -15.9

Compound profiles, as listed above:
COc1cccc(C2NC(=S)NC(C)=C2C(=O)c2ccccc2)c1OC (configuration not stated) is listed with PglD inh = nt; F508del corr = 2.4; UUG fidelity = nt; miR-122 sensor = 147.1*; EWS-Fli inh = ?; LGR2 antag = 34.8
CCc1ccc(-c2nc(CSCC(=O)NCc3ccco3)c(C)o2)cc1 is listed with PglD inh = nt; F508del corr = -0.1; UUG fidelity = nt; miR-122 sensor = nt; EWS-Fli inh = 83.6*; LGR2 antag = 0.8

The listing continues:
[6] Cc1ccc(-c2nc(CSCC(=O)Nc3cc(C)on3)c(C)o2)cc1
[7] Cc1cc(NC(=O)CSCc2nc(-c3cccc(F)c3)oc2C)no1
[8] CC(C)n1nc(C(=O)NCCc2ccc(S(N)(=O)=O)cc2)c2ccccc2c1=O
[9] CS(=O)(=O)N(CC(=O)N1CCN(Cc2ccccc2)CC1)c1cccc(Cl)c1
[10] Cc1ccc(N(Cc2ccco2)C(=O)c2ccc(N3CCCCC3)c([N+](=O)[O-])c2)cc1
assay / compound | 6 | 7 | 8 | 9 | 10
PglD inh | 2.1 | -8.5 | 6.8 | -4.8 | -4.3
F508del corr | 8.4* | 0.8 | nt | 1.3 | 0.0
UUG fidelity | -9.2 | -12.9 | 2.9 | -11.4 | -8.5
miR-122 sensor | 4.2 | -3.6 | -1.3 | 3.7 | 164.5*
EWS-Fli inh | 35.2 | 3.7 | nt | 9.1 | -10.0
LGR2 antag | 2.6 | 5.8 | 11.1 | 11.3 | 4.9

[11] Cc1ccc(NC(=O)O/N=C/c2c(C)nn(C(C)(C)C)c2C)cc1Cl
[12] Cc1ccc(NC(=O)Nn2cnnc2)cc1Cl
[13] C=CCN=c1scc(-c2ccccc2)n1/N=C/c1ccccn1
[14] COc1ccc(C(=O)Nc2ccc(S(=O)(=O)NCc3ccco3)cc2)cc1OC
[15] COc1ccc(S(=O)(=O)NCc2ccco2)c2ccccc12
assay / compound | 11 | 12 | 13 | 14 | 15
PglD inh | -1.3 | 0.8 | 1.7 | 0.5 | 3.9
F508del corr | 0.0 | -0.9 | 8.4*! | nt | 3.6
UUG fidelity | -67.0 | -11.3 | -7.3 | 17.9 | -5.7
miR-122 sensor | -6.7 | -2.6 | 11.3 | 176.1* | 95.8*
EWS-Fli inh | 76.1* | nt | -60.5 | nt | -4.2
LGR2 antag | 99.2* | 6.0 | -36.2 | nt | -20.1

[16] COc1cccc2c1C(=O)C=C(C)C2=O
[17] CC1=CC(=O)c2ccccc2C1=O
[18] C=CCSc1nc2ccccc2n1C(=O)/C=C/c1cc(OC)c(OC)c(OC)c1
[19] CC(C)c1nnc(NC(=O)c2ccc(S(=O)(=O)N3CCOCC3)cc2)s1
[20] Cc1cc(C(=O)CCl)c(C)n1CCc1ccccc1
assay / compound | 16 | 17 | 18 | 19 | 20
PglD inh | 3.6 | -3.7 | -5.5 | 1.8 | nt
F508del corr | 15.7* | -3.7 | -6.1 | 6.0 | -1.5
UUG fidelity | -16.4 | -15.5 | -16.5 | 4.8 | nt
miR-122 sensor | -8.0 | -5.2 | -10.4 | nt | nt
EWS-Fli inh | 23.8 | -4.8 | 67.0* | 6.1 | 75.2*
LGR2 antag | 20.5 | -7.1 | 95.8* | 0.1 | 7.6

[21] CCOC(=O)c1cc(C)n(CCc2ccccc2)c1C
[22] COC(=O)c1ccc([C@H]2C=C(C(=O)N3CCN(Cc4ccc5c(c4)OCO5)CC3)O[C@@H](OCc3ccc(CO)cc3)C2)cc1
[23] O=C(C1=C[C@@H](c2ccccc2)C[C@@H](OCc2ccc(CO)cc2)O1)N1CCN(Cc2ccc3c(c2)OCO3)CC1
[24] Cc1ccc(C(=O)NC2CC3CCCC(C2)N3C(=S)NCc2ccco2)cc1 (configuration not stated)
[25] Cn1cc(C(=O)OCC2CCN(CCNS(C)(=O)=O)CC2)c2ccccc21
[26] Cn1cc(C(N)=O)c2ccccc21
[27] C[C@H]1CCCCO[C@H](CN(C)Cc2ccc(C(=O)O)cc2)[C@@H](C)CN([C@@H](C)CO)C(=O)c2cc(NC(=O)Nc3ccc4c(c3)OCO4)ccc2O1
[28] CO[C@@H](CN(C)S(=O)(=O)c1ccc(C)cc1)[C@H](C)CN([C@@H](C)CO)S(=O)(=O)c1cccc(Cl)c1
assay / compound | 21 | 22 | 23 | 24 | 25 | 26 | 27 | 28
PglD inh | -1.6 | 2.3 | 1.3 | 0.3 | 0.3 | -3.6 | -3.2 | -1.9
F508del corr | nt | 1.6 | 8.8*! | -4.4 | 16.4* | -1.0 | -1.5 | 10.6*
UUG fidelity | -3.4 | 4.2 | -0.2 | 4.0 | 13.3 | 4.6 | 7.5 | nt
miR-122 sensor | 2.7 | nt | nt | nt | -6.5 | -1.6 | 25.1[16.7 µM] | nt
EWS-Fli inh | nt | 4.8 | 27.5 | -3.1 | 6.3 | -5.0 | -12.6 | 10.2
LGR2 antag | nt | nt | 2.6 | 34.3 | 2.2 | 1.2 | 9.7 | 2.4
